miR-21 FLuc = miR-21 reporter, rising signal; Potency, µM (titrated, usually from 38.3 µM), without a hit: at the highest dose reporter change, positive = more light; AID 2288; 340,000 tested, under 10 active; HeLa miR-21 FLuc reporter, luciferase, 48 h; active = well fitted rising curve with a large enough effect; inconclusive = small, poorly fitted or top-dose-only effect; inactive = no such curve, though single readings can be large or run the other way;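 note: % of control where 0% means no effect; miR-21 action dims this reporter so a rising signal means less miR-21 action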
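Luminescence from a firefly luciferase reporter carrying a miR-21 binding site downstream, stably expressed under a CMV promoter in HeLa cells that make miR-21 endogenously, reports miRNA modulation after 48 h compound exposure up to approximately 40uM final.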
PINK1 modulator = PINK1 expression modulation; Potency, µM (titrated, usually from 76.6 µM), without a hit: top-dose activation (PINK1 increase), usual class: activators; actives 0.2% (n = 410,000); PINK1 immunofluorescence, high-content cytometry, 24 h; active = well fitted activation curve with a large enough effect; inconclusive = small, poorly fitted or top-dose-only effect; cell line not stated here; note: potency is the fitted concentration of half-maximal effect; % of control where 0% means no effect; nearly all actives have a fitted effect of over 65% in size
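PINK1 protein, normally rapidly degraded, was detected by immunofluorescence after 24 hour compound treatment of a stable cell line. Titration data (5 concentrations) came from laser-scanning cytometry, with CCCP-treated wells as controls.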
PTHR1 ag = agonists of human PTHR1 parathyroid hormone receptor. HEK293 GP2 PTHR1 cells, GloSensor cAMP luminescence, 1 h. actives 0.075% (n = 410,000). Q03431. Potency, µM (series often up to 115 µM), inactives show top-dose activation, most hits filed as activators; note: potency is the fitted concentration of half-maximal effect; nearly all actives have a fitted effect of over 55% in size
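HEK-293-derived GP2 cells expressing PTHR1 and a GloSensor cAMP reporter, 3,000/well, plated overnight, given luciferin plus IBMX (each 0.5 mM as added) for 1 h at 37 °C, then compound for 1 h at 37 °C. Luminescence was read after 15 min at room temperature.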
Giardia kill = kills Giardia lamblia | Giardia lamblia trophozoite viability | activity change, % at 7.66 µM, hits read low | actives 0.15% (n = 340,000); in the data active = activity change below about -80%; inconclusive = between about -30% and that limit;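 note: parasites exposed to compound for two days anaerobically before the ATP read; % is set by controls: 0 for no effect and ±100 for the full control effect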
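ATP-content bioluminescence gauges trophozoite survival. Cells (100/well) receive compound and incubate anaerobically for 48 hrs at 37 deg C; detection reagent follows for 15-30 min at room temperature.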
ERG Ets-DNA blk = inhibitors of human ERG Ets domain-DNA interaction | fluorescence polarization, His-ERG Ets domain / labelled DNA | actives 0.028% (n = 370,000) | Potency, µM (titrated, usually from 76.9 µM), for inactives: top-dose FP activity, negative = inhibition, most hits filed as inhibitors | AID 624246; active = well fitted inhibition curve with a large enough effect in the polarisation, with a control signal flat; inconclusive = small, poorly fitted or top-dose-only effect, or effect the other way, or a change in a side signal; inactive = no such curve, though single readings can be large or run the other way; the % refers to the polarisation;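 note: polarization taken with two DNA probes labelled with fluorescein and Texas red; potency is the fitted concentration of half-maximal effect; % of control where 0% means no effect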
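His-tagged ERG Ets domain (1 uM in the protein solution; 300mM KCl, 50mM Tris-HCl, 1mM EDTA, 1mM DTT, pH 7.5) received compound, then a probe mix of 5 nM fluorescein-DNA and 100nM Texas-615-DNA. Fluorescence polarization was read for both dyes.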
12-LOX inh = inhibitors of human 12S-lipoxygenase ALOX12; P18054; actives 1.1% (n = 580,000); purified 12hLO, xylenol orange hydroperoxide absorbance; Potency, µM (top dose mostly 108 µM), for inactives: at the highest dose activity change, negative = inhibition, most hits filed as inhibitors; AID 1671190; note: potency is the fitted concentration of half-maximal effect; % is set by controls: 0 for no effect and ±100 for the full control effect
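Purified human 12hLO at 150 nM in 25 mM Hepes, 0.01% Triton X-100, pH 7.0, preincubated 15 min at room temperature with compound. Reaction started with 40 uM arachidonic acid, 30 min at room temperature. Hydroperoxide measured by Fe-xylenol orange, 573/405 nm absorbance ratio.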
* = called active by the depositor; [ ] = remark or other dose. Sampled rows, rich in hits. Any-hit rate of the full collection: about 1.3%. Unless noted, calls come from the whole dose curve; as a rule, active = well fitted curve in the direction sought with a large enough effect; inconclusive = small, poorly fitted or top-dose-only effect, or another doubt; inactive = no such curve, though single readings can be large; an effect the other way counts as inactive or inconclusive.

Results for CCCCC1=CC2=CC(=O)C(C)(OC(=O)CCc3ccccc3)C(=O)C2=CO1 (stereo not given) ?
miR-21 FLuc: 2%; PINK1 modulator: 0%; PTHR1 ag: inactive; Giardia kill: 4; ERG Ets-DNA blk: 44%; 12-LOX inh: 13µM*

Results for Cc1cc(/C=C(\C#N)C(=O)NCc2ccco2)c(C)n1-c1ccc(C(=O)O)cc1 ?
miR-21 FLuc: -5%; PINK1 modulator: 5%; PTHR1 ag: inactive; Giardia kill: 12; ERG Ets-DNA blk: 1%; 12-LOX inh: -3%

Results for COc1ccc(CC(=O)NC(CC(=O)O)c2cccc([N+](=O)[O-])c2)cc1 (stereo not given) ?
miR-21 FLuc: 0%; PINK1 modulator: 0%; PTHR1 ag: inactive; Giardia kill: 1; ERG Ets-DNA blk: -10%; 12-LOX inh: -7%

What do the screens show for `COC(=O)C1=C(C)OC(N)=C(C#N)C1c1ccc(-c2ccccc2)cc1` (stereo not given)?
12-LOX inh: 35µM*

What do the screens show for `CS(=O)(=O)N1C[C@@H]2OCC(=O)N(Cc3cccnc3)[C@@H]2C1`?
12-LOX inh: 1%[176 µM]

What do the screens show for `CC1(C(=O)Nc2cccc3cccnc23)Cc2ccccc2C(=O)O1` (stereo not given)?
12-LOX inh: -36%

What do the screens show for `N=C(N)c1ccc(OCc2ccncc2)cc1`?
12-LOX inh: 8.9µM*

Results for N=C(N)c1ccc(OCCCOc2ccc(C(=N)N)cc2)cc1 ?
12-LOX inh: -11%[22.9 µM]

How did CCC(=O)OCOc1ccc(/C=C2/CCC(CN(C)C)C2=O)cc1 (stereo not given) do in these assays?
PINK1 modulator: -2%; PTHR1 ag: -80%; Giardia kill: 1; 12-LOX inh: 35µM*

Results for C[C@@H](NCc1cccc(Cl)c1)c1onc(-c2ccc(F)cc2)c1C(=O)O ?
12-LOX inh: 28µM*

Results for O=C(O)COc1ccc(/C=N/n2c(COc3ccccc3)nc3ccccc3c2=O)cc1 ?
miR-21 FLuc: -46%; PINK1 modulator: 2%; PTHR1 ag: inactive; Giardia kill: -2; ERG Ets-DNA blk: -6%; 12-LOX inh: -1%

How did O=c1c2ccccc2nc(COc2ccccc2)n1/N=C/c1ccc(O)c(O)c1 do in these assays?
miR-21 FLuc: -28%; PINK1 modulator: 1%; PTHR1 ag: -26%; Giardia kill: -15; ERG Ets-DNA blk: 9%; 12-LOX inh: 3.5µM*

Overlap with the part before: four compounds; new compounds follow.
How did CCC(=O)OCOc1ccc(/C=C2/CCC(CN(C)C)C2=O)cc1 (stereo not given) do in these assays?
PINK1 modulator: -2%; PTHR1 ag: -80%; Giardia kill: 1; 12-LOX inh: 35µM*

Results for C[C@@H](NCc1cccc(Cl)c1)c1onc(-c2ccc(F)cc2)c1C(=O)O ?
12-LOX inh: 28µM*

Results for O=C(O)COc1ccc(/C=N/n2c(COc3ccccc3)nc3ccccc3c2=O)cc1 ?
miR-21 FLuc: -46%; PINK1 modulator: 2%; PTHR1 ag: inactive; Giardia kill: -2; ERG Ets-DNA blk: -6%; 12-LOX inh: -1%

How did O=c1c2ccccc2nc(COc2ccccc2)n1/N=C/c1ccc(O)c(O)c1 do in these assays?
miR-21 FLuc: -28%; PINK1 modulator: 1%; PTHR1 ag: -26%; Giardia kill: -15; ERG Ets-DNA blk: 9%; 12-LOX inh: 3.5µM*

Results for C[C@@H]1CN(C[C@@H]2CN(C(=O)c3ccsc3)C[C@@H]2CO)C[C@H](C)O1 ?
12-LOX inh: 22%

Results for CCCc1cc(=O)n2[nH]c(-c3ccc(C)cc3)nc2n1 ?
miR-21 FLuc: -31%; PINK1 modulator: 0%; PTHR1 ag: -3%; ERG Ets-DNA blk: -1%; 12-LOX inh: -15%

How did CCc1ccc(NCc2cc(=O)n3[nH]c(-c4ccccc4)nc3n2)cc1 do in these assays?
12-LOX inh: 8.9µM*

Results for COc1cccc(NCc2cc(=O)n3[nH]c(-c4ccc(C)cc4)nc3n2)c1 ?
12-LOX inh: 40µM*

How did O=C(Nc1nccs1)c1cc(S(=O)(=O)N2CCOCC2)ccc1Cl do in these assays?
miR-21 FLuc: 3%; PINK1 modulator: -3%; PTHR1 ag: inactive; Giardia kill: -10; ERG Ets-DNA blk: -6%; 12-LOX inh: -22%

How did C[n+]1c2n(c3ccccc31)N=C(c1cc(C(C)(C)C)c(O)c(C(C)(C)C)c1)CS2 do in these assays?
miR-21 FLuc: inconclusive; PINK1 modulator: -2%; PTHR1 ag: -32%; Giardia kill: -10; ERG Ets-DNA blk: -1%; 12-LOX inh: 28µM*

How did COc1cccc(C2=Nn3c(nnc3-c3ccccc3O)SC2)c1 do in these assays?
miR-21 FLuc: -6%; PINK1 modulator: 17%; PTHR1 ag: -21%; Giardia kill: -12; ERG Ets-DNA blk: 0%; 12-LOX inh: 0%

What do the screens show for `Cc1ccc(CN2CCc3nc(C(C)C)nc(-c4ccc(O)cc4)c3CC2)cc1`?
12-LOX inh: 45µM*

What do the screens show for `COc1ccc(CN2CCc3nc(C(C)C)nc(-c4ccc(O)cc4)c3CC2)cc1`?
12-LOX inh: -28%

Results for O=C(O)c1ccc(NC2(C(=O)O)CCCC2)cc1 ?
PINK1 modulator: -3%; PTHR1 ag: 5%; Giardia kill: 8; ERG Ets-DNA blk: 8%; 12-LOX inh: 14µM*

Results for CC(Cc1cccs1)NC(=S)Nc1ccc(Cl)c(Cl)c1 (stereo not given) ?
miR-21 FLuc: -18%; PINK1 modulator: inconclusive; PTHR1 ag: -27%; Giardia kill: 18; ERG Ets-DNA blk: -19%; 12-LOX inh: 32µM*

Results for CC(Cc1cccs1)NC(=S)Nc1ccc(Cl)cc1 (stereo not given) ?
miR-21 FLuc: -5%; PINK1 modulator: inconclusive; PTHR1 ag: -37%; Giardia kill: 4; ERG Ets-DNA blk: 0%; 12-LOX inh: 40µM*

What do the screens show for `CC(Cc1cccs1)NC(=O)Nc1ccc(F)cc1` (stereo not given)?
miR-21 FLuc: -40%; PINK1 modulator: 0%; PTHR1 ag: inactive; Giardia kill: -5; ERG Ets-DNA blk: 1%; 12-LOX inh: -8%

Results for CC(C)(C)c1ccc(NC(=S)NCc2cccs2)cc1 ?
miR-21 FLuc: -10%; PINK1 modulator: 0%; PTHR1 ag: inactive; Giardia kill: -2; ERG Ets-DNA blk: -6%; 12-LOX inh: 32µM*

What do the screens show for `CC(Cc1cccs1)NC(=O)Nc1cccc(Cl)c1` (stereo not given)?
miR-21 FLuc: 8%; PINK1 modulator: 2%; PTHR1 ag: -37%; Giardia kill: -2; ERG Ets-DNA blk: -6%; 12-LOX inh: -19%

How did Cc1ccn2c(Nc3ccc4c(c3)OCO4)c(-c3ccccn3)nc2c1 do in these assays?
miR-21 FLuc: -51%; PINK1 modulator: 40µM*; PTHR1 ag: -8%; Giardia kill: -21; ERG Ets-DNA blk: inconclusive; 12-LOX inh: 20%

Results for COc1[nH]c(/N=C/c2ccccc2)c(C#N)c1C#N ?
miR-21 FLuc: 1%; PINK1 modulator: 1%; PTHR1 ag: inactive; Giardia kill: -5; ERG Ets-DNA blk: 32µM*; 12-LOX inh: inconclusive

Results for CSc1ccccc1C(=O)NCCOc1ccccc1C ?
miR-21 FLuc: -9%; PINK1 modulator: -1%; PTHR1 ag: inactive; Giardia kill: 5; ERG Ets-DNA blk: -2%; 12-LOX inh: 0%

Source: PubChem
